# Laboratory results reported in paper PMC10726352, “Discovery of KB-0742, a Potent, Selective, Orally Bioavailable Small Molecule Inhibitor of CDK9 for MYC-Dependent Cancers” (Journal of Medicinal Chemistry, 2023).
# “And” between values parts separate entries of the source, which are not always exact repeats. Identical values can stand only once. Like-named read-outs stand apart in the source and are kept apart here.
# Tests used:
# [1] = Projection of human PK parameters; settings: 70 kg body weight; IVIVE and allometry
# pSER2 (RNAP II Ser 2) = settings: 60 mg/kg p.o.
# CTG-0437 = settings: CTG-0437, 60 mg/kg PO 3-days on, 4-days off
# CTG-0869 = settings: CTG-0869, 60 mg/kg PO 3-days on, 4-days off
# MYC = settings: 60 mg/kg p.o.
structure (smiles),measurement,setting,value
"CCC(CC)c1cc(N[C@H]2CC[C@H](N)C2)n2nccc2n1 [Compound 28, [(1S,3S)-3-[[5-(1-Ethylpropyl)pyrazolo[1,5-a]pyrimidin-4-ium-7-yl]amino]cyclopentyl]ammonium Dichloride]",mean predicted human plasma clearance (Cl),[1],2.0 mL/min/kg and 2 mL/min/kg
same,pSER2 levels in tumor,pSER2 (RNAP II Ser 2); 2 h post-terminal dose,significantly reduced
same,pSER2 levels in tumor,pSER2 (RNAP II Ser 2); 8 h post-administration,no longer significantly different from vehicle
same,TGI,CTG-0437,42%
same,TGI,CTG-0869,59%
same,MYC levels in tumor,MYC; 2 h post-terminal dose,significantly reduced
same,MYC levels in tumor,MYC; 8 h post-administration,no longer significantly different from vehicle
